The source of these data is PMC7155171, “Probing the Open Global Health Chemical Diversity Library for Multistage-Active Starting Points for Next-Generation Antimalarials” (ACS Infectious Diseases, 2020).

This assay concerns P. falciparum Dd2 (PfLuc) line expressing firefly luciferase, asexual blood stage. Kind of assay: microbe, parasite or virus in culture. To be noted: Plasmodium falciparum, DD2, 96 h, read-out: average potency at 96 h in the luciferase assay. The format is cell-based.

Take `CCC[C@@H]1C[C@@H](C(=O)N[C@@H]([C@H]2O[C@H](SC)[C@H](O)[C@@H](O)[C@H]2O)[C@H](C)Cl)N(C)C1` [clindamycin, reference compound]: the IC50 is 5.2 ± 1.25 nM.
